Assay results reported in patent US8637550B2, “Heteroaryl diamide compounds useful as MMP-13 inhibitors” (Boehringer Ingelheim International GmbH, priority 2008, dated 2014).

Molecular target: MMP-13 (Homo sapiens, UniProt P45452)
Assay: EnzoLyte 520 Generic MMP Assay Kit, 5-FAM/QXL520 FRET peptide substrate
Format: biochemical

With “5-[5-(5-Methyl-3H-imidazol-4-ylmethoxy)-pyridin-2-yl]-furan-2-carboxylic acid ((S)-2-methyl-1-methylcarbamoyl-propyl)-amide” the IC50 was 29 nM.
